Patent publication US20170304369A1, “METHODS OF DIFFERENTIATING STEM CELLS INTO LIVER CELL LINEAGES” (Agency for Science, Technology and Research, priority 2014, published 2017)

System: hepatic progenitors
Assay: Treatment of hepatic progenitors (days 13-18), hepatocyte-like cell, periportal versus perivenous gene expression
Format: cell-based, human

For `Cc1cnc(-c2cnc(NCCNc3ccc(C#N)cn3)nc2-c2ccc(Cl)cc2Cl)[nH]1` [CHIR99201, 6-[[2-[[4-(2,4-dichlorophenyl)-5-(5-methyl-1H-imidazol-2-yl)-2pyrimidinyl]amino]ethyl]amino]-3-pyridinecarbonitrile], the “expression of hepatic genes” value was “vastly reduces”.
